## AlphaSeq binding of Ab-95 light chain variants to a spike HR2 peptide

Values reported by Engelhart et al. 2022, doi:10.1038/s41597-022-01779-4 (FLAb copy).

The target is the same throughout: PDVDLGDISGINAS, from the HR2 region of SARS-CoV-2 spike.

Parent: Ab-95, a human scFv built as VH, the linker GGGGSGGGGSGGGGS, VL. Only the CDRs of the light chain vary.
VH: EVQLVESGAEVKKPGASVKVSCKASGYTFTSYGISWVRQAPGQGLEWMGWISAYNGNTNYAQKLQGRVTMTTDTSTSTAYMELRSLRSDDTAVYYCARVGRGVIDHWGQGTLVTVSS
VL: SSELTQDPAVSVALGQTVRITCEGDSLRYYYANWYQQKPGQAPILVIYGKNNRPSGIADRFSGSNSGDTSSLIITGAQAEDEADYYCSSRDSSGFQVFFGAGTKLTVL

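The parent was found by panning a naive human phage display library on the peptide. The library (AAYL52) carries one to three amino acid substitutions per variant, with no insertions or deletions. In AlphaSeq, yeast of one mating type display the scFv and yeast of the other type display the target. After mating in shaken culture at 30 °C for 16 h, diploids were selected and their barcode pairs sequenced. The ratio of observed to expected reads was calibrated, replicate by replicate, on BCL2-family standards whose Kd was known from biolayer interferometry. The assay was run in three technical replicates.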

Substitutions are numbered in sequence along the VL above, starting at 1 (not Kabat).
Values are log10 of the apparent Kd in nM; lower means stronger binding.
The mean shown is taken over the replicates in which the pair was detected.
A pair that was not seen in that replicate is written "n.d."; this usually means weak binding, but a binder can also be missed.

| changes | log10 Kd, replicates | mean, log10 nM | empty controls |
|---|---|---|---|
| A32I G49D N51K | n.d. / n.d. / n.d. | n.d. | 1/9 (4.63) |
| R53T G94A | 3.83 / n.d. / n.d. | 3.83 | 5/9 (4.07) |
| D25Q L27H G94F | 3.66 / 3.26 / 3.37 | 3.43 | 4/9 (4.06) |
| D25T S92D G94P | 1.85 / 2.46 / 1.89 | 2.07 | 3/9 (3.57) |
| R28K S92H Q96D | n.d. / n.d. / n.d. | n.d. | 0/9 |
| R53C P54G V97L | 3.74 / 3.58 / 3.71 | 3.68 | 6/9 (3.81) |
| S26Q S88I F95H | 2.73 / n.d. / n.d. | 2.73 | 5/9 (3.54) |
| A32S N51D D91P | 2.95 / 2.53 / 3.19 | 2.89 | 2/9 (4.70) |
| E23N D25F R90E | 3.71 / 3.76 / n.d. | 3.73 | 3/9 (3.78) |
| G49I P54T Q96C | 3.16 / n.d. / n.d. | 3.16 | 1/9 (4.43) |
| Y30R N52Q F95Q | 2.08 / 1.93 / 1.72 | 1.91 | 1/9 (3.78) |
| E23L S26I S89M | 4.88 / n.d. / 2.85 | 3.87 | 3/9 (3.64) |
| R28N F95S V97H | 5.36 / n.d. / n.d. | 5.36 | 2/9 (3.14) |
| D25N A32T S55M | 3.05 / 2.58 / 2.46 | 2.70 | 4/9 (4.13) |
| E23T G94R F98Y | 3.88 / 3.35 / n.d. | 3.61 | 2/9 (3.43) |
| S26Y S55L | 4.61 / 3.19 / n.d. | 3.90 | 1/9 (4.70) |
| S55V S88H S89H | 2.61 / 1.84 / n.d. | 2.23 | 0/9 |
| N33Q S55F F98W | 4.20 / 4.10 / 3.46 | 3.92 | 2/9 (3.56) |
| G49H S88N F95S | n.d. / 4.71 / n.d. | 4.71 | 5/9 (4.05) |
| R28I A32N F98K | n.d. / n.d. / n.d. | n.d. | 0/9 |
| G49M S55F S93F | 3.37 / 2.79 / n.d. | 3.08 | 3/9 (3.43) |
| P54D S88G Q96G | n.d. / 3.60 / n.d. | 3.60 | 5/9 (3.61) |
| D25I S26K F95R | 2.68 / 2.73 / 2.38 | 2.60 | 3/9 (4.31) |
| D25C Y31Q S88F | 4.13 / 3.62 / n.d. | 3.87 | 5/9 (3.84) |
| Y30F P54F R90P | 3.48 / 3.12 / n.d. | 3.30 | 2/9 (3.61) |
| D25N K50F N52S | n.d. / 3.46 / n.d. | 3.46 | 4/9 (3.75) |
| R28A F95S V97T | 3.55 / 3.24 / 3.19 | 3.33 | 4/9 (3.75) |
| G94Q F95R F98Q | 2.70 / 2.73 / 2.06 | 2.50 | 3/9 (4.00) |
| E23R G24E V97K | n.d. / 2.96 / n.d. | 2.96 | 2/9 (3.33) |
| R28M Y29K D91P | 1.77 / 3.87 / 1.91 | 2.51 | 1/9 (2.99) |
| L27I A32H S88K | 5.05 / n.d. / n.d. | 5.05 | 1/9 (3.16) |
| A32C N51C S88Q | 4.41 / n.d. / n.d. | 4.41 | 5/9 (4.12) |

The closing 3 entries, repeated:

| changes | log10 Kd, replicates | mean, log10 nM | empty controls |
|---|---|---|---|
| R28M Y29K D91P | 1.77 / 3.87 / 1.91 | 2.51 | 1/9 (2.99) |
| L27I A32H S88K | 5.05 / n.d. / n.d. | 5.05 | 1/9 (3.16) |
| A32C N51C S88Q | 4.41 / n.d. / n.d. | 4.41 | 5/9 (4.12) |

In this assay the parent's reference entry averaged 2.31; its copy inside this library read 2.25.
Empty control strains, which show no peptide, gave a signal in 28% of pairings with library AAYL52; the median was 3.91 and 95% of these signals were weaker than 2.90. No background was subtracted. The control count says in how many pairings with the empty strains this scFv gave a signal, with their mean in brackets.